From PubChem BioAssay
Hits are enriched below; roughly 2.2% of the tested compounds scored in any of these assays.
PI4K2A inh: PI4K2A (human) kinase inhibition; activity change, negative = inhibition, % at 76.9 µM; Q9BTU6; 420,000 compounds, 0.13% hits; purified PI4K2A, ADP-Glo luminescence, 1 h; active compounds read low; in the data active = activity change below about -50%; inconclusive = mostly about -30% to -49%
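In this quantitative HTS, ADP production by PI4K2A was quantified luminescently after 1 h at ambient temperature; 100 microM adenosine served as plate-quality control.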
GALK inhibitor: inhibitors of human galactokinase. Purified GALK, Kinase-Glo residual ATP luminescence. Potency, µM (doses to about 57.5 µM), usual class: inhibitors. 270,000 compounds, 0.007% hits. AID 1868
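Galactose (100 uM) and ATP (35 uM) were turned over by 5 nM GALK for 1 h at RT. Kinase-Glo Plus then converted the remaining ATP into a luminescent signal.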
A549 viability: counter-screen for Nrf2 inhibitors: cytotoxicity in A549 cells | A549 ARE-Fluc cells, CellTiter-Fluor viability, 18-24 h | Potency, µM (highest dose often 46 µM), usual class: inhibitors | 390,000 compounds, 0.16% hits | AID 504648
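Cytotoxicity counterscreen: CellTiter-Fluor fluorescence was measured in A549 ARE_Fluc cells after 18-24 h of compound exposure in a concentration series. The subsequent BugLite luminescent read reports ARE-luciferase activity.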
Nrf2 inh: blocks Nrf2 signaling. Potency, µM (series often up to 46 µM), hits mostly inhibitors. A549 ARE-Fluc reporter, luciferase luminescence, 18-24 h. 360,000 compounds, 2.1% hits; also: nearly all actives have a fitted effect of over 60% in size
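Cells were seeded and rested 2 h, then exposed to compounds for 18-24 h. CellTiter-Fluor was read first as a viability measure. BugLite was added 15 min before the final luminescent read of ARE-luciferase activity in A549 cells.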
Nrf2 activator: activators of Nrf2 (ARE) signaling. AREc32 ARE-luciferase reporter (MCF7-derived line), luminescence, 24 h. Potency, µM (highest dose often 46.1 µM), most hits filed as activators. 410,000 compounds, 0.31% hits. AID 624171; also: nearly all actives have a fitted effect of over 65% in size
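For detection, Steady-Glo was added and plates sat 30 min at RT; before that, AREc32_Fluc cells grown overnight in OPTI-MEM/5% FBS had been treated with 23 nL compound for 24 hr at 37 deg C.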
miR-21 reporter: miR-21 reporter, rising signal | HeLa miR-21 FLuc reporter, luciferase, 48 h | Potency, µM (top dose mostly 38.3 µM) | 340,000 tested, under 10 active | AID 2288; active = well fitted rising curve with a large enough effect; inconclusive = small, poorly fitted or top-dose-only effect; inactive = no such curve, though single readings can be large or run the other way;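 note: miR-21 action dims this reporter so a rising signal means less miR-21 action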
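Using DMEM plus 10% FBS, HeLa miR-21-FLuc cells are incubated with test compounds (final up to about 40uM) for 48 hours; firefly luciferase signal is then imaged following reagent-mediated lysis.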
Each line names hits and unclear results; the compound was inactive in the other large screens. Unless noted, calls follow the shape of the dose curve; as a rule, active = well fitted curve in the direction sought with a large enough effect; inconclusive = small, poorly fitted or top-dose-only effect, or another doubt; inactive = no such curve, though single readings can be large; an effect the other way counts as inactive or inconclusive.

O=C(c1noc2c1CCCCC2)N1CCN(c2ccc(Cl)cc2)CC1	Nrf2 inh 8.2µM (no result: GALK inhibitor)
COc1ccc(-c2cc(C(=O)Nc3cc(C)n(Cc4ccc(Cl)cc4)n3)no2)cc1OC	Nrf2 inh 4.11µM
COc1ccc2c(c1)CCc1c(C(=O)Nc3cc(C)n(Cc4ccc(Cl)cc4)n3)noc1-2	none
Cc1cc(NC(=O)c2noc3c2CCCC3)nn1Cc1ccc(Cl)cc1	Nrf2 inh 23.1µM
Cc1c(NC(=O)C2CCCN(S(=O)(=O)c3ccccc3[N+](=O)[O-])C2)c(=O)n(-c2ccccc2)n1C (stereo not drawn)	none (no result: GALK inhibitor, A549 viability, Nrf2 inh, Nrf2 activator, miR-21 reporter)
CCOc1ccc(N2C(=O)C(Cl)=C(Nc3ccccc3O)C2=O)cc1	Nrf2 activator 12.6µM
COc1cc(CNCCc2ccc(S(N)(=O)=O)cc2)ccc1OCc1ccc(Cl)cc1	A549 viability inconclusive, Nrf2 inh 23.1µM
CCOc1cc(CNCCc2ccc(S(N)(=O)=O)cc2)ccc1OCc1ccc(Cl)cc1	A549 viability inconclusive, miR-21 reporter inconclusive (no result: GALK inhibitor, Nrf2 inh)
CC(=O)N1c2ccc(S(=O)(=O)NCC3CCC(C(=O)Nc4ccc(C)c(C)c4)CC3)cc2CC1C (stereo not drawn)	Nrf2 inh 20.6µM (no result: GALK inhibitor)
COc1ccccc1NC(=O)C1CCC(CNS(=O)(=O)c2ccc3c(c2)CC(C)N3C(C)=O)CC1 (stereo not drawn)	Nrf2 inh 18.4µM, miR-21 reporter inconclusive (no result: GALK inhibitor)
CN1CCN(c2oc(COc3ccc(-c4ccccc4)cc3)nc2C#N)CC1	A549 viability inconclusive, Nrf2 inh 16.4µM
COc1ccc(N2CCN(c3oc(COc4ccccc4)nc3C#N)CC2)cc1	none
COc1ccc(Br)cc1CC1C(=O)Nc2ccccc21 (stereo not drawn)	Nrf2 inh 7.31µM (no result: GALK inhibitor)
CN=c1scc(-c2ccccc2F)n1/N=C/c1ccc(O)c(O)c1O	A549 viability inconclusive, Nrf2 inh 11.6µM
CN=c1scc(-c2ccccc2F)n1/N=C/c1ccc[nH]1	Nrf2 inh inconclusive, miR-21 reporter inconclusive
CC(C)c1ccc(C(=O)Nc2cc(Cl)ccc2C(=O)O)cc1	none (no result: GALK inhibitor, A549 viability, Nrf2 inh, Nrf2 activator, miR-21 reporter)
O=C(c1ccccc1)c1ccc2nc(-c3ccc(NC(=O)c4ccccc4Br)cc3)[nH]c2c1	Nrf2 inh inconclusive
Cc1ccccc1C(=O)Nc1ccc(-c2nc3ccc(C(=O)c4ccccc4)cc3[nH]2)cc1	Nrf2 inh 20.6µM
Cc1ccc(S(=O)(=O)N(C)C)cc1NC(=O)c1cncc(Br)c1	Nrf2 inh 11.6µM
CN(C)S(=O)(=O)c1cccc(NC(=O)c2cncc(Br)c2)c1	none
O=C1CC(c2ccc3c(c2)OCO3)N=C2N(Cc3ccc4c(c3)OCO4)C/C(=C/c3ccccc3)N12 (stereo not drawn)	none (no result: GALK inhibitor, A549 viability, Nrf2 inh, Nrf2 activator, miR-21 reporter)
COc1cc(C(C)=O)ccc1OCCCN1CCC(c2noc3cc(F)ccc23)CC1	none (no result: GALK inhibitor, A549 viability, Nrf2 inh, Nrf2 activator, miR-21 reporter)
COC(=O)[C@]12C[C@H](CC(=O)NCCCCc3ccccc3)C(=O)N(CCc3ccc(OC)c(OC)c3)C1=C[C@H](C(C)(C)C)O[C@@H]2C	none (no result: GALK inhibitor, A549 viability, Nrf2 inh, Nrf2 activator, miR-21 reporter)
CCOC(=O)c1cnc2ccc(OC)cc2c1NCCc1ccccc1	A549 viability inconclusive, Nrf2 inh 23.1µM, miR-21 reporter inconclusive (no result: GALK inhibitor)
CCOC(=O)c1cnc2ccc(OCC)cc2c1NCc1ccccc1OC	A549 viability 11.6µM, Nrf2 inh 6.51µM
CCOC(=O)c1cnc2ccc(OC)cc2c1NCc1ccccc1	none
CCOC(=O)c1cnc2ccc(OC)cc2c1Nc1cccc(C(C)=O)c1	A549 viability inconclusive, Nrf2 inh 16.4µM (no result: GALK inhibitor)
COc1ccc(CC2C(=O)NC(C)C(=O)N(C)C3Cc4ccc(cc4)Oc4cc(ccc4O)CC(C(=O)NC(C)C(=O)NC(C)C(=O)N2C)N(C)C3=O)cc1 (stereo not drawn)	A549 viability 2.31µM, Nrf2 inh 1.64µM (no result: GALK inhibitor, miR-21 reporter)
Cc1ccc(CNC(=S)NC2CCC(C(C)(C)C)CC2)cc1 (stereo not drawn)	Nrf2 inh 20.6µM
O=C(c1ccc(Br)cc1)c1cc2ccc(O)cc2oc1=O	Nrf2 activator inconclusive
CCc1ccc(C(=O)c2cc3ccc(O)cc3oc2=O)cc1	none
O=C(NCc1ccco1)c1cc2ccc(O)cc2oc1=O	PI4K2A inh -76.4
COc1ccc2cc(C(=O)NCc3ccco3)c(=O)oc2c1	none
COc1ccc(C(=O)c2cc3ccc(O)cc3oc2=O)cc1	PI4K2A inh -52.8
O=C(c1ccccc1)c1cc2ccc(O)cc2oc1=O	PI4K2A inh -86.6
C[C@H](CCCCC1(C)OCCO1)CCC(=O)N(c1ccccc1)c1ccccc1	none (no result: GALK inhibitor, A549 viability, Nrf2 inh, Nrf2 activator, miR-21 reporter)
CCn1ccc(NS(=O)(=O)c2ccc(N)cc2)nc1=O	none (no result: GALK inhibitor, A549 viability, Nrf2 inh, Nrf2 activator, miR-21 reporter)
CS(=O)(=O)c1nc(-c2ccccc2)cc(C(F)(F)F)n1	A549 viability inconclusive, Nrf2 inh 23.1µM, Nrf2 activator inconclusive, miR-21 reporter inconclusive
Cc1cc(NC(=O)CCS(=O)(=O)c2nc(-c3ccccc3)cc(C(F)(F)F)n2)no1	miR-21 reporter inconclusive (no result: Nrf2 inh)
C=CCOC(=O)C1=C(C)NC(SCC(=O)Nc2ccc(C)c(Cl)c2)=C(C#N)C1c1ccco1 (stereo not drawn)	Nrf2 inh 6.51µM
COCCOC(=O)C1=C(C)NC(SCC(=O)NC(C)(C)C)=C(C#N)C1c1ccco1 (stereo not drawn)	none
C=CCOC(=O)C1=C(C)NC(SCC)=C(C#N)C1c1ccc(Cl)cc1 (stereo not drawn)	A549 viability inconclusive, Nrf2 inh 20.6µM
C=CCOC(=O)C1=C(C)NC(SCC(N)=O)=C(C#N)C1c1ccc(C)cc1 (stereo not drawn)	none
COCCNC(=O)C[C@H]1CC[C@H]2[C@@H](COc3ccc(NS(=O)(=O)c4ccc(Cl)cc4)cc3C(=O)N2C)O1	none (no result: GALK inhibitor, A549 viability, Nrf2 inh, Nrf2 activator, miR-21 reporter)
Clc1ccc2[nH]cc(-c3nnnn3-c3ccc4ccccc4c3)c2c1	Nrf2 inh 18.4µM
Cc1ccc(-n2nnnc2-c2cnc3ccc(Cl)cc3c2-c2ccccc2)cc1	Nrf2 inh inconclusive
Cc1cc(C)nc(SCCC(=O)Nc2cccc3ccccc23)n1	none (no result: GALK inhibitor)
Cc1cc(C)nc(SCCC(=O)Nc2ccccc2Cl)n1	Nrf2 inh 11.6µM
CCc1nc(Nc2ccc(OC)c(OC)c2)c2nnn(Cc3ccccc3Cl)c2n1	A549 viability inconclusive, Nrf2 inh 10.3µM
O=C(N/N=C/c1c(Cl)nc2ccccn2c1=O)c1cccnc1	Nrf2 inh inconclusive, Nrf2 activator 14.1µM
Cn1c(=O)c2cc(S(=O)(=O)NCCC(=O)N3CC=C(c4ccccc4)CC3)ccc2n(C)c1=O	Nrf2 inh 14.6µM
CN(CC(=O)N1CC=C(c2ccccc2)CC1)S(=O)(=O)c1ccc2c(c1)c(=O)n(C)c(=O)n2C	none
O=C(CN1CCN(Cc2ccccc2Cl)CC1)N/N=C/C=C/c1ccco1	Nrf2 activator inconclusive
